Reference: US10543227B2, “Hair growth composition” (RIKEN, priority 2015, dated 2020)

Details: mouse, in vivo
Experimental: Each test drug was applied to hair-shaved back sites (in an amount of 200 μL per site) of 5-6 animals per group, daily at a frequency of once a day. At 10 minutes and 30 minutes after the application on Day 20, average body surface temperature (° C.) was measured. […] Body surface temperature (° C.) was measured by photographing a hair-shaved site and its periphery using an infrared thermography camera (Thermoshot F30S (NEC/Avio, Tokyo, Japan)). The average body surface temperature per area was calculated using InfRec Analyzer NS9500 Standard (NEC/Avio, Tokyo, Japan).
These animals were subjected to drawing blood from the hearts on the final week for biochemical examination. Each blood was allowed to stand still on ice for 30 minutes and centrifuged twice at 10,000 rpm for 15 minutes (at 4° C.). The supernatants (i.e., sera) were transferred to new containers and stored in a freezer (at −80° C.). The sera were analyzed using a clinical chemistry analyzer for animal (FUJI DRI-CHEM 3500V) and special slides to obtain the values of [GPT (glutamate-pyruvate transaminase), GOT (glutamate oxaloacetate transaminase), GGT (γ-glutamyl transferase), LDH (lactate dehydrogenase), CHE (cholinesterase), CPK (creatine phosphokinase), ALB (albumin), TP (total protein), TCHO (total cholesterol), and TG (triglyceride)].

## Nc1cc(N2CCCCC2)nc(N)[n+]1[O-] [Minoxidil, minoxidil, reference compound]
  GPT (ALT): 22.8 ± 4.3 U/l
